The text below walks through data of publication PMC6191844 (European journal of medicinal chemistry, 2011).

Protein sequences, listed by entry. Tags and fused reporters are not part of them.
UniProt Q01827, whole entry: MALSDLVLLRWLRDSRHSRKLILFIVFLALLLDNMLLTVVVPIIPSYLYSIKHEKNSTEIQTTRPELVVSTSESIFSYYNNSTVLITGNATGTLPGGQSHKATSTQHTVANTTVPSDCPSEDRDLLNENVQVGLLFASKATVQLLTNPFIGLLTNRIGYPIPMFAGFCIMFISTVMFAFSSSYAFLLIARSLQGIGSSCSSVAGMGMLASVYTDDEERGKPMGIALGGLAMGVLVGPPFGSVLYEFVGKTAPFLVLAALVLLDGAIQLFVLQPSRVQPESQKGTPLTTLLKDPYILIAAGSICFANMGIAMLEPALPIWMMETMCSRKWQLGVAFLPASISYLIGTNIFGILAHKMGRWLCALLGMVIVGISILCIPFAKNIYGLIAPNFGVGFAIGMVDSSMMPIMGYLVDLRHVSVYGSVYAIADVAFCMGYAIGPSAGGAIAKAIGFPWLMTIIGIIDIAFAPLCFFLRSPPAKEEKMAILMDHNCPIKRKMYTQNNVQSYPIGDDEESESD

For this assay, the target named is VMAT2 (Rattus norvegicus, UniProt Q01827). To be noted: ratio of Ki values.

On to `COc1cc2c(cc1OC)[C@H]1CC(=O)[C@H](CC(C)C)CN1CC2` [(+)-1, (3R,11bR)-Tetrabenazine], for which the “fold more potent than its levorotatory enantiomer at VMAT2” value came out at 8000 fold.
